We go through 1 compound from ChEMBL document CHEMBL1123975, “2-Phenylpyrroles as conformationally restricted benzamide analogues. A new class of potential antipsychotics. 2” (J Med Chem, 1988).

Amino acid sequences for entries named in this document (tags omitted).
UniProt P61169, whole entry: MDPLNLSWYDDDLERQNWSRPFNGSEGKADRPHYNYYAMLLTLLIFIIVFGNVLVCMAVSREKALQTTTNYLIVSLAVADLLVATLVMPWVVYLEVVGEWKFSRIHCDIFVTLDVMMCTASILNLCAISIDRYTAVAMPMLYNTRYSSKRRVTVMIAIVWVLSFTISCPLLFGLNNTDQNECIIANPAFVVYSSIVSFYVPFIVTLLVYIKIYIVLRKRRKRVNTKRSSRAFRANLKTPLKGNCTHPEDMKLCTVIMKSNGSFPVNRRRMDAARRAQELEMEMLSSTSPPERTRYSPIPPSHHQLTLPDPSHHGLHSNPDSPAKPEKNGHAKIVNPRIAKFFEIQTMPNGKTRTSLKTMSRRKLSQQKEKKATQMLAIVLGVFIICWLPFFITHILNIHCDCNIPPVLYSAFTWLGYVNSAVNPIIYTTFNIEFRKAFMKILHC

The assay concerns the target D(2) dopamine receptor (Rattus norvegicus, UniProt P61169). In words: Displacement of [3H]-Spiperone from Dopamine receptor D2 in rat striatum. (Displacement assays read how much labelled ligand stays bound in the presence of the test substance.)

In general, Ki refers to the equilibrium dissociation constant of an inhibitor or competing ligand from its target. A higher Ki goes with a looser hold on the target. The compound `COc1ccccc1N1CCN(CCNC(=O)c2ccc(F)cc2)CC1` registered a Ki of 4.3 nM. This counts as single-digit nanomolar.
